Apparent affinities of Ab-14 variants for a coronavirus HR2 peptide

From the AlphaSeq antibody data of Li et al. 2023 (doi:10.1038/s41467-023-39022-2), copy in the FLAb collection.

Antigen: PDVDLGDISGINAS, a 14-residue peptide of the SARS-CoV-2 spike HR2 region.

The variants keep the heavy chain, the linker and the frameworks of Ab-14 (scFv order VH, the linker GGGGSGGGGSGGGGS, VL).
VH: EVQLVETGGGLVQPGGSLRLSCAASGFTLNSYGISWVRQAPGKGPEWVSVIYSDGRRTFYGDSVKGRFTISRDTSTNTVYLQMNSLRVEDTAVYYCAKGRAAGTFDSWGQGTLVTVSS
VL: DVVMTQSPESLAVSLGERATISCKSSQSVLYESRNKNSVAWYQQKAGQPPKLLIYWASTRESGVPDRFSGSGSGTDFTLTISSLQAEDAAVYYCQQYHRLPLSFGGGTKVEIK

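The parent was found by panning a naive human phage display library on the peptide. Designed CDR sequences, proposed from the first random library and measured here. Group labels follow the data file (Ctrl: baseline library sampled from a position-specific scoring matrix, with some repeated check sequences; Rand: our label for a block that the file lists under HC and that is probably the random mutants of the ten best first-round binders; En: ensemble of fine-tuned language models; GP: Gaussian process model; HC: hill climbing; Gen: genetic algorithm; Gibbs: Gibbs sampling; a sequence that several methods proposed may carry one label only). The assay is AlphaSeq: two haploid yeast populations carry antibody and antigen on their surface. Binding brings cells together so that they mate, and sequencing counts the barcode pairs among the diploids. Scores were corrected for input abundance and mapped to Kd with protein pairs of known affinity run in the same pool. Mating was done six times.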

Each variant is given by its three light chain CDRs, as the data file delimits them; those of the parent are KSSQSVLYESRNKNSVA, WASTRES, QQYHRLPLS.
Values are log10 of the apparent Kd in nM; lower means stronger binding.
The mean shown is taken over the replicates in which the pair was detected.
A pair that was not seen in any replicate is written "nd"; this usually means weak binding, but a binder can also be missed.
As a blank, each scFv also met three strains without target: over all light chain designs, 4% of these pairings were detected, typically at 2.64 and seldom below 1.59.

Read-out nd (0 of 6 replicates), from MLEWLEINGQSVGNSIA / ANVQEQE / QQYFRLPLT [En_Gibbs].
Read-out 1.49 (5 of 6 replicates), from KISMMYRYESTASNSIA / EVTTRAE / QSYHRLPLS [En_HC].
Read-out -0.37 (6 of 6 replicates), from KLSQSVLYESRNKNSVA / EASQRLS / QQYHRLPLS [GP_Gen].
Read-out nd (0 of 6 replicates), from IVSQLMLWGMKARNSIA / EAVTRLN / QQYDRLPLI [En_Gen].
Read-out 0.20 (6 of 6 replicates), from KMSQSDLYESRNKNSVA / NGSTRES / QQYHRLPLS [GP_Gen].
Read-out -0.07 (6 of 6 replicates), from NIVEDNAGDQKNSQNIA / SVDQRED / QQYQKLPLM [En_Gibbs].
Read-out 0.98 (6 of 6 replicates), from AISQMTEPAAQNSNSIA / EEDRVTE / QQYSKLPLT [En_Gibbs].
Read-out nd (0 of 6 replicates), from NMQLQVRNGNNNKYNIA / AEMKREY / QQYQRLPLS [En_Gibbs].
Read-out -0.44 (6 of 6 replicates), from KLSQSVMYESRNKNSVA / NASTREE / QQYHRLPLS [GP_Gen].
Read-out 1.29 (5 of 6 replicates), from KLSQSVLYEQQNKNQVA / ESSTRMS / QQYHRLPLS [GP_Gibbs].
Read-out 0.30 (6 of 6 replicates), from HLSDSVLLESRNKNSVA / NASTRES / QQYHRLPLN [GP_HC].
Read-out 0.82 (6 of 6 replicates), from MMSQLTYTGSRARNAVA / QAETRVN / QQYHHLPLI [En_HC].
Read-out 1.11 (6 of 6 replicates), from KVQLGLERGNQAYSAVA / GVTEKGD / QQYFQLPLG [En_Gibbs].
Read-out 1.66 (6 of 6 replicates), from KSSQSVLYESRNKNSVA / ESSTRES / QQYHRLPLS [Ctrl].
Read-out 1.26 (6 of 6 replicates), from AIAGTLHFNQSGGSNVA / EVQMREQ / QQYFRLPLG [En_Gibbs].
Read-out 0.63 (6 of 6 replicates), from KVSQSNPYESRNKNSVA / NASTRES / QQYHRLPLS [GP_Gen].
Read-out 1.53 (6 of 6 replicates), from QFDLFENYQGMQGANIA / GETNRHT / QQYQKLPLS [En_Gibbs].
Read-out 0.27 (6 of 6 replicates), from KSSQVVLQESTNKNSVA / SASTRES / QQYHRLPLS [Ctrl].
Read-out 1.60 (5 of 6 replicates), from KLEDQMQTSIAMDNSIA / QTNMFHE / QQYGRLPLV [En_Gibbs].
Read-out 1.38 (6 of 6 replicates), from MISQVMGLNNMYKSSVA / QAETRLN / QQYDHLPLS [En_Gen].
Read-out -0.45 (6 of 6 replicates), from KLSQSDLYESRNKNSVA / DASTRES / QQYHRLPLS [GP_Gen].
Read-out 0.10 (6 of 6 replicates), from KISQLVNFEGKGKNSVA / QMSTRES / QQYDRLPLS [En_HC].
Read-out 0.13 (6 of 6 replicates), from KSSQSVAFESRNANSVA / DASTRES / QQYHRLPLS [Rand].
Read-out 1.58 (6 of 6 replicates), from KISQSMLYESRNHNSVA / WASTRES / QQYHGLPLS [Ctrl].
Read-out 1.68 (4 of 6 replicates), from KFSHSVDSESRNKNDVA / WASTRES / QFYHRLPLS [Ctrl].
Read-out -0.11 (6 of 6 replicates), from KLSQSVLGEQRNKNSVA / DISTRES / QQYHRLPLS [GP_HC].
Read-out 0.37 (6 of 6 replicates), from TISMVMNHMSRNENNVA / NMDMRSN / QQYDRLPLS [En_Gen].
Read-out 1.10 (6 of 6 replicates), from KSSQSVLYESRNKNEVA / DADTRES / QQYHRLPLS [Ctrl].
Read-out 0.46 (6 of 6 replicates), from KVSQSELGQERNKMSVA / QASTRED / QQYHRLPLS [GP_Gibbs].
Read-out 0.33 (6 of 6 replicates), from KMSQSQPYESRMSNAVA / NASLRMS / QQYHRLPLS [GP_Gibbs].
Read-out 1.17 (6 of 6 replicates), from KISMTYRYESQASNSIA / EMTTREE / QSYHRLPLS [En_HC].
Read-out 1.73 (5 of 6 replicates), from KSSISYPYESRNKNIVA / EYSTRES / QQYHRLPLS [Rand].
Read-out 0.32 (6 of 6 replicates), from KISQLVNFLGKNKNSVA / QMSTRET / QQYDRLPLS [En_HC].
Read-out 0.35 (6 of 6 replicates), from QLMVFNLQAGSTQAAIA / DASHSTD / QQYARLPLM [En_Gibbs].
Read-out -0.18 (6 of 6 replicates), from KMSMSWMQEERNKNSVA / QASQREQ / QQYHRLPLS [GP_Gibbs].
Read-out 0.39 (6 of 6 replicates), from KLSQQVEYESRNKNSVA / NASTRES / QQYHRLPLS [GP_Gen].
Read-out 0.40 (6 of 6 replicates), from KLVNSTLYESRQKNSVA / EASTRES / QQYHRLPLS [GP_HC].
Read-out -0.07 (6 of 6 replicates), from KSSISYLYESRNKNSVA / QASTRES / QQYHRLPLS [GP_HC].
Read-out 2.44 (4 of 6 replicates), from KCSQSVKYEHRNKNSVA / AASTRSS / QQYHRLPLS [Ctrl].
Read-out 0.09 (6 of 6 replicates), from KFSQLVLYESRNKNSVA / NASTRES / QQYRRLPLS [GP_Gibbs].
Read-out 0.02 (6 of 6 replicates), from KISQSELYESRNKNSVA / NASQRES / QQYHRLPLS [GP_Gen].
Read-out -0.20 (6 of 6 replicates), from KESQSVLQEWRNKNSVA / DASTRES / QQYHRLPLS [GP_HC].
Read-out -0.54 (6 of 6 replicates), from KLSQSVQYESRNKNSVA / DASTRES / QQYHRLPLS [GP_Gen].
Read-out 0.40 (6 of 6 replicates), from KLSQEWLMESRNKNQVA / HASTRMS / QQYHRLPLS [GP_Gibbs].
Read-out nd (0 of 6 replicates), from QIAMEMYHGLNDNQNIA / DAMTYEK / QQYSRLPLF [En_Gibbs].
Read-out -0.04 (6 of 6 replicates), from KIMQSELYESRNKNSVA / NASTRMS / QQYHRLPLS [GP_Gen].

Top 5 of the variants detected in all replicates, tightest first:

{"CDR-L1": "KLSQSVQYESRNKNSVA", "CDR-L2": "DASTRES", "CDR-L3": "QQYHRLPLS", "group": "GP_Gen", "log10 Kd (nM), mean": "-0.54", "replicates with signal": "6 of 6"}
{"CDR-L1": "KLSQSDLYESRNKNSVA", "CDR-L2": "DASTRES", "CDR-L3": "QQYHRLPLS", "group": "GP_Gen", "log10 Kd (nM), mean": "-0.45", "replicates with signal": "6 of 6"}
{"CDR-L1": "KLSQSVMYESRNKNSVA", "CDR-L2": "NASTREE", "CDR-L3": "QQYHRLPLS", "group": "GP_Gen", "log10 Kd (nM), mean": "-0.44", "replicates with signal": "6 of 6"}
{"CDR-L1": "KLSQSVLYESRNKNSVA", "CDR-L2": "EASQRLS", "CDR-L3": "QQYHRLPLS", "group": "GP_Gen", "log10 Kd (nM), mean": "-0.37", "replicates with signal": "6 of 6"}
{"CDR-L1": "KESQSVLQEWRNKNSVA", "CDR-L2": "DASTRES", "CDR-L3": "QQYHRLPLS", "group": "GP_HC", "log10 Kd (nM), mean": "-0.20", "replicates with signal": "6 of 6"}

The range of this assay differs from that of the first round, and the authors advise against merging the two.
In the paper, a design with two or fewer of six values counts as a poor binder.